Measured affinities in a library of Ab-14 light chain variants

Data: MIT Lincoln Laboratory AlphaSeq set, Li et al. 2023, doi:10.1038/s41467-023-39022-2, as distributed in FLAb.

Antigen: PDVDLGDISGINAS, a 14-residue peptide of the SARS-CoV-2 spike HR2 region.

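The starting antibody came from a phage panning campaign against this peptide. These sequences belong to a second round, designed from the earlier measurements on random variants of the parent. Their group label is 14L_En_Gibbs (En: ensemble of fine-tuned language models; Gibbs: Gibbs sampling). The scFvs were displayed on barcoded MATa yeast, the peptide on MATalpha yeast. Mating (16 h, 30 °C) was followed by selection of diploids and sequencing of their barcodes. The ratio of observed to expected reads was calibrated, replicate by replicate, on BCL2-family standards whose Kd was known from biolayer interferometry. Mating was done six times.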

Parent: Ab-14, a human scFv built as VH, a (GGGGS)3 linker, VL. Only the CDRs of the light chain vary.
VH: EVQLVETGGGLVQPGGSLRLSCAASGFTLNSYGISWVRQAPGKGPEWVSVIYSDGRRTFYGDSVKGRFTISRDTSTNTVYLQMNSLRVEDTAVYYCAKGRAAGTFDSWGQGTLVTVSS
VL: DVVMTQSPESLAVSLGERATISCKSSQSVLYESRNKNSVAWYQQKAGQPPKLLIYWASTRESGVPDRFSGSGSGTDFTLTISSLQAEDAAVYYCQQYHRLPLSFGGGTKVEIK

Variants are written as CDR1, CDR2 and CDR3 of the light chain (limits as in the source). Parent: KSSQSVLYESRNKNSVA, WASTRES, QQYHRLPLS. Scale: log10 of Kd in nM, estimated from mating counts; low values are strong binders. The mean shown is taken over the replicates in which the pair was detected. A pair that was not seen in that replicate is written "n.d."; this usually means weak binding, but a binder can also be missed.

CDR-L1 | CDR-L2 | CDR-L3 | replicates, log10 nM | mean, log10 nM | control signals
QLMVFNLQAGSTQAAIA | DASHSTP | QQYARLPLM | n.d. 2.10 1.80 1.16 2.04 1.88 | 1.80 | 0/18
NLSYRQFEPTGMVNSVA | QTSLRAH | QQYAHLPLC | 0.56 0.88 0.60 0.28 0.37 0.55 | 0.54 | 1/18 (2.47)
KLKELFAMWARAQGNVA | DATERCT | QQYSRLPIT | n.d. 2.22 1.62 4.27 2.91 2.11 | 2.63 | 0/18
RLTNEFFKEMERKNSVA | HADQRCM | QQYFRLPLI | 1.03 1.20 0.88 0.88 0.94 1.09 | 1.00 | 0/18
KIAEQIMHVYIGANAIA | DATVKSA | QQYLRLPLM | 1.54 0.38 0.71 0.57 0.74 -0.05 | 0.65 | 1/18 (2.22)
HVSSMLMAGGGIYNSIA | GNKVLER | QQYMRLPLM | 0.19 0.08 -0.02 0.09 -0.02 0.10 | 0.07 | 0/18
HLQEQSFVGQKDKWSVA | ESECKYN | QQYAQLPLM | 2.25 1.71 1.70 2.11 2.50 2.14 | 2.07 | 1/18 (2.84)
KLQLGLGEQKNVYYNVA | NESLKTA | QHYFRLPLT | 0.03 -0.06 -0.18 0.04 0.43 -0.08 | 0.03 | 2/18 (2.55)
KLWQDMYNGRNQANAVA | EGNILAN | QQYARLPFS | 0.26 0.45 0.16 0.24 0.46 0.45 | 0.34 | 2/18 (2.47)
QYSENLTIYDQEQGNVA | HGEMRTE | QQYHKLPLS | 1.24 1.24 0.93 0.85 0.73 0.93 | 0.99 | 1/18 (3.31)
HVPNYPENFRSAKDNIA | DQSATTS | QQYDRLPLA | 0.46 0.24 0.46 0.25 0.49 0.38 | 0.38 | 0/18
KLMNSLDAFKQWEDNIA | ETEIKVA | QQYYHLPLT | n.d. 1.64 1.74 n.d. 2.76 n.d. | 2.05 | 1/18 (2.31)
HFSQMLEPGAQNFNAVA | HGDRVTE | QQYHKLPLA | 1.15 1.45 1.48 0.76 1.48 1.18 | 1.25 | 0/18
KLYDDAASRVQDAENIA | EKTESLQ | QQYHRLPLS | 1.35 0.94 2.56 0.81 1.49 1.18 | 1.39 | 1/18 (2.06)
NLAMAYEQGILIKNNIA | SSNLREN | QQYEKLPLI | 0.36 0.20 0.45 0.25 0.17 0.60 | 0.34 | 0/18
DVHALMEHSSDLNYAIA | HASMRDA | QQYERLPLS | 0.65 0.87 0.41 0.25 0.64 0.33 | 0.53 | 0/18
NLNTYYEGGFLNTDNIA | HGNMVEA | QQYYRLPLS | 0.50 0.18 0.47 0.21 0.38 0.57 | 0.38 | 1/18 (1.92)
ALRGVGCDEQVKHSAIA | DAEHANQ | QQYSMLPLS | 0.75 0.97 0.45 0.87 0.81 0.54 | 0.73 | 0/18
RIMYEYDSSVDKYNAVA | QAHIRAQ | QFYNRLPLS | n.d. 2.92 n.d. 2.15 1.51 2.51 | 2.27 | 1/18 (2.37)
MFKMENEEFAQDKHSVA | EAVERES | QQYHRLPII | n.d. 0.50 0.83 0.55 0.59 0.49 | 0.59 | 0/18
GMSDSMQETIADANHIA | DGEARDV | QQYARLPLI | 0.78 0.24 0.43 0.49 0.92 0.67 | 0.59 | 0/18
KLLGQNLQNMDKLNSIA | EQSVHYQ | QQYGRLPFT | 0.73 0.28 0.45 0.33 0.41 0.98 | 0.53 | 0/18
HMKDELGLGPQTYHSVA | HASILEP | QQYYRLPLG | 1.86 2.09 1.95 1.14 0.90 1.62 | 1.59 | 0/18
QMRVSLSQGIYRQDSVA | STDIRVL | QQYHHLPLS | 0.77 0.66 0.49 0.78 0.75 1.18 | 0.77 | 2/18 (2.59)
SLELFSLSGDLPWNAVA | DEVVKLA | QQYFRLPLH | n.d. 1.62 1.27 1.28 1.08 1.71 | 1.39 | 0/18
HITDLHYFGNEGEWNIA | DDNISVM | QQYFRLPLS | 1.77 1.82 2.58 2.86 1.91 3.47 | 2.40 | 2/18 (2.78)
RINVFQNVSTQGNNSIA | GAEQKVH | QQYMRLPLY | 0.73 0.95 0.70 0.77 0.74 0.88 | 0.79 | 0/18
HISPMQAYAYEAKNSVA | DTETKLN | QQYIRLPLS | 1.85 0.75 1.50 0.58 1.02 1.61 | 1.22 | 0/18
MVTLQLRPGHETQNPIA | EASHRAA | QQYAHLPLG | 0.42 1.35 0.90 0.76 1.56 1.30 | 1.05 | 1/18 (0.03)
QLPFYRGDGYLQKNNVA | EGTESSH | QQYMRLPLT | n.d. n.d. n.d. n.d. n.d. n.d. | n.d. | 0/18
NIVGRVEDKGTTTANIA | DAELRAG | QQYSRLPLS | 0.34 0.46 0.20 -0.06 0.25 0.51 | 0.28 | 0/18
RIFYNEEQDLRHKSSIA | NGSARVF | QQYYMLPLS | 1.31 1.24 1.39 1.10 1.03 1.42 | 1.25 | 0/18
HIPIKLPGNWKMMDSVA | HSALRAE | QQYARLPLM | 0.68 0.21 0.24 0.06 0.40 0.18 | 0.29 | 0/18
NISIHGMDENSTRNHIA | DTNCRDF | QQYWHLPLS | 1.00 0.55 0.62 0.51 0.37 1.04 | 0.68 | 3/18 (2.91)
AIKQLWSTMGAARHNVA | EAKTRAI | QDYFRLPLI | 0.79 n.d. n.d. 1.70 n.d. n.d. | 1.25 | 0/18
KLRNDFMENKQNQSNIA | GHHESIK | QQYSMLPLS | 1.33 0.80 0.60 0.99 0.78 1.19 | 0.95 | 2/18 (2.92)
KLDLNNGEMDKKGDNIA | EASTAGM | QHYWRLPLS | n.d. 2.34 n.d. 2.41 2.74 2.68 | 2.54 | 0/18
HFSQHTMEEMSQNKAVA | EVTTTMT | QQYARLPFI | 0.74 0.10 0.82 0.61 0.09 1.69 | 0.67 | 0/18
QIDSFYQHGTDQKKAMA | DSSVRTQ | QQYSRLPLS | -0.27 -0.29 -0.40 -0.34 -0.17 -0.03 | -0.25 | 3/18 (2.36)
KIQWYPLENRGTIQAIA | EASTIYN | QQYMHLPLS | n.d. 1.08 n.d. n.d. 1.98 0.82 | 1.30 | 1/18 (1.99)
KVNISPHKQGMHKHGVA | DHDMRVS | QQYDRLPLA | 0.89 1.09 0.95 1.74 0.95 1.27 | 1.15 | 1/18 (4.13)
NLSDGEMYENATRSNVA | NTSMRDF | QQYNRLPLD | 1.54 1.75 1.40 1.16 1.58 1.63 | 1.51 | 1/18 (3.01)
KMTTNLGHQASRKNSIA | EADMVAA | QQYMRLPLI | 0.30 0.56 0.48 0.46 0.39 0.41 | 0.43 | 1/18 (3.54)
ALSGWEWAGNENINAVA | DRSALEW | QQYQRLPLS | 1.08 0.99 0.52 0.40 0.52 0.91 | 0.74 | 0/18
QLDWYNSTATASANNVA | DVAQRMN | QQYMRLPLM | 0.50 0.95 0.86 0.40 0.42 0.50 | 0.61 | 1/18 (3.14)

A sequence measured in both rounds can read differently, since the two assays cover different ranges. Nonspecific signal, from three strains lacking the peptide, appeared in 4% of pairings of all light chain designs, centred on 2.64 (5% of these signals below 1.59); values are not corrected for it. Also given: how often the same scFv was detected with the empty control strains, with their mean in brackets. In the paper, a design with two or fewer of six values counts as a poor binder. Of ten entries with the parent sequence, four were seen in most replicates (averages 0.34 to 2.37), three in one and three in none, so single entries are noisy.